Source: ChEMBL document CHEMBL1136402, “Characterization of HERG potassium channel inhibition using CoMSiA 3D QSAR and homology modeling approaches” (Bioorg Med Chem Lett, 2003)

Amino acid sequences for entries named in this document (tags omitted). A change or cut given only in a name is not applied to a line headed by its entry.
UniProt Q12809: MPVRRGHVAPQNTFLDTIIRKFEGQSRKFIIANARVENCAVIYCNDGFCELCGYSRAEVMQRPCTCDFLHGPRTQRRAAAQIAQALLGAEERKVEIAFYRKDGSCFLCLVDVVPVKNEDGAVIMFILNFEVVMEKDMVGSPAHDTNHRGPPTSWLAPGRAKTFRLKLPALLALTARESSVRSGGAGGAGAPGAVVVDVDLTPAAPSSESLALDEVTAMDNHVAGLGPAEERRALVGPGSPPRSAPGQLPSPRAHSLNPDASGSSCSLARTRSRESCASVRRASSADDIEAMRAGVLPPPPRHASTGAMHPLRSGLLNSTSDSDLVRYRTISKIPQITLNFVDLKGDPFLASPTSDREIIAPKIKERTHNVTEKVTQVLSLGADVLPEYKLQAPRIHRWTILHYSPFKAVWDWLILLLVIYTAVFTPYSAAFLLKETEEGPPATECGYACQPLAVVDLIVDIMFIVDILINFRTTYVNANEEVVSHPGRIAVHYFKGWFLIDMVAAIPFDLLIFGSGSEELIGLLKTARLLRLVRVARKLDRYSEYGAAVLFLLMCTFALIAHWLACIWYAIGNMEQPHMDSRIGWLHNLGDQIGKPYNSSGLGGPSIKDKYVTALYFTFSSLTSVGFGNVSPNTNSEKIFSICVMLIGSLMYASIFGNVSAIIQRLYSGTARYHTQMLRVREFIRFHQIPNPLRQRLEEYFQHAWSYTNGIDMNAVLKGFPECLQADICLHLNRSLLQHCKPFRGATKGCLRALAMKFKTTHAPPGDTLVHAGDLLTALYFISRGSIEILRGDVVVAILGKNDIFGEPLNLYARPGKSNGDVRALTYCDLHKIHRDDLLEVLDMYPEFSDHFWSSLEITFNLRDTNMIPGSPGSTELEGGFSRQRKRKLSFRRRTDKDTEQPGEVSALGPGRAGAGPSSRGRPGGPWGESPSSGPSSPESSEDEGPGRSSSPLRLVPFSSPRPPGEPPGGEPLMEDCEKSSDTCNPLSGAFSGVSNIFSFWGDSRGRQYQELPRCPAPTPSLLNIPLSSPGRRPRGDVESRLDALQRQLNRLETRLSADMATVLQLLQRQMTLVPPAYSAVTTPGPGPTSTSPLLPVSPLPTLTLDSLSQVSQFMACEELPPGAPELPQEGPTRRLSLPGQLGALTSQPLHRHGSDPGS

Biological target: Voltage-gated inwardly rectifying potassium channel KCNH2 (Homo sapiens, UniProt Q12809)
Experiment: Inhibition of K+ channel activity in CHO cells expressing HERG Kv11.1

SMILES: CCC(CC)c1cn(-c2ccc(F)cc2)c2ccc(Cl)cc12
- IC50: 1480 nM
